Values joined by “and” are separate entries in the source; they are usually repeats but may differ in a detail not shown here. Equal entries are not always repeated.
Columns and labels:
Assay type in all cases: cell-based, human
[1] = tested on: PBMC from allergic donors; test: IFN-γ ELISPOT with extract-stimulated short-term lines; conditions: positive donor/peptide response; one donor per table line
Experimental: (§1) Spots were counted by computer-assisted image analysis (Zeiss, KS-ELISPOT reader, Munich, Germany).
(§2) Each assay was performed in triplicate. The level of statistical significance was determined with a Student's t-test using the mean of triplicate values of the response against relevant pools or individual peptides versus the response against the DMSO control.

[2] = tested on: PBMC from allergic donors; test: IL-5 ELISPOT with extract-stimulated short-term lines; conditions: positive donor/peptide response; one donor per table line
Experimental: as §1, §2

[3] = tested on: PBMC from allergic donors; test: Dual ELISPOT, total IL-5 and IFN-γ response (SFC); conditions: sum of IFNg and IL-5; one donor per table line
Experimental: as §1, §2

## CC[C@H](C)[C@H](NC(=O)[C@H](CO)NC(=O)CNC(=O)CN)C(=O)N[C@@H](CC(C)C)C(=O)N[C@@H](CCCCN)C(=O)N[C@H](C(=O)N[C@@H](CO)C(=O)N[C@@H](CC(N)=O)C(=O)N[C@@H](CCCCN)C(=O)N[C@@H](Cc1ccc(O)cc1)C(=O)N[C@@H](Cc1c[nH]cn1)C(=O)N[C@H](C(=O)N[C@@H](CCCCN)C(=O)NCC(=O)O)[C@@H](C)O)[C@@H](C)CC [3324.0352]
[1]
  Response (SFC/10^6) IFNg: 612 SFC/10^6 and 240 SFC/10^6
[2]
  Response (SFC/10^6) IL-5: 280 SFC/10^6
[3]
  Response (SFC/10^6) Total: 280 SFC/10^6 and 612 SFC/10^6 and 240 SFC/10^6

## CC[C@H](C)[C@H](NC(=O)[C@H](CCCCN)NC(=O)[C@H](CCC(=O)O)NC(=O)[C@@H](N)CC(C)C)C(=O)N[C@@H](CO)C(=O)N[C@@H](CC(N)=O)C(=O)N[C@@H](CCC(=O)O)C(=O)N[C@H](C(=O)N[C@@H](CCCCN)C(=O)N[C@H](C(=O)N[C@H](C(=O)N[C@@H](C)C(=O)N[C@H](C(=O)N1CCC[C@H]1C(=O)N[C@@H](CC(=O)O)C(=O)O)[C@@H](C)O)C(C)C)[C@@H](C)CC)[C@@H](C)CC [3324.0353]
[1]
  Response (SFC/10^6) IFNg: 92 SFC/10^6
[2]
  Response (SFC/10^6) IL-5: 370 SFC/10^6
[3]
  Response (SFC/10^6) Total: 92 SFC/10^6 and 370 SFC/10^6
